Biological target: T1, Alpha-1A adrenergic receptor (Homo sapiens, UniProt P35348)
T1 sequence (P35348 whole entry): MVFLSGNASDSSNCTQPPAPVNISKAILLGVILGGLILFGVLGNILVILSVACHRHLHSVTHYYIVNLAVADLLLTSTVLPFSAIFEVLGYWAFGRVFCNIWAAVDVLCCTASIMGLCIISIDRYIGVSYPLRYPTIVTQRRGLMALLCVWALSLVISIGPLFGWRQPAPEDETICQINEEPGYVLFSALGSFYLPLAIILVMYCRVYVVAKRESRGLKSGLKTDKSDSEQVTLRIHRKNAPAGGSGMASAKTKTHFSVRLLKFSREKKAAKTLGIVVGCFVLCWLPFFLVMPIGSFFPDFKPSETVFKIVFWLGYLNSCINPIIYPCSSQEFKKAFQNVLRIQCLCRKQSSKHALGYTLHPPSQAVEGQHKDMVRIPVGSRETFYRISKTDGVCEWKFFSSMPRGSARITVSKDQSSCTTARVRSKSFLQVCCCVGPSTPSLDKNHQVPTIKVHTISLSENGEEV

SMILES: Cc1cc2c(s1)Nc1ccccc1N=C2N1CCN(C)CC1 [OLANZAPINE]
- Ki: 1 µM
